Measurements as given in patent US20240360157A1, “TYK2 INHIBITORS” (BIOGEN MA INC., priority 2021, published 2024).

Sequences of proteins named here, by UniProt entry; tags and fusion partners are left off. Residues count along the entry.
UniProt P29597, 897-1176 limits assumed: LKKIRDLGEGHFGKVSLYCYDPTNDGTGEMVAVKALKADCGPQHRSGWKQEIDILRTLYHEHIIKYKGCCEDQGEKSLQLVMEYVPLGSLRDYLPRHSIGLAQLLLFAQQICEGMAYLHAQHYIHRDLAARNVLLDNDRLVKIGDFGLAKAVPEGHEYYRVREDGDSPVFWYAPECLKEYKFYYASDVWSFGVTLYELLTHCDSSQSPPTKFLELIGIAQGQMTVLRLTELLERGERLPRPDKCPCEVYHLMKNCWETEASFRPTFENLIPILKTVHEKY
UniProt P23458, 875-1153 limits assumed: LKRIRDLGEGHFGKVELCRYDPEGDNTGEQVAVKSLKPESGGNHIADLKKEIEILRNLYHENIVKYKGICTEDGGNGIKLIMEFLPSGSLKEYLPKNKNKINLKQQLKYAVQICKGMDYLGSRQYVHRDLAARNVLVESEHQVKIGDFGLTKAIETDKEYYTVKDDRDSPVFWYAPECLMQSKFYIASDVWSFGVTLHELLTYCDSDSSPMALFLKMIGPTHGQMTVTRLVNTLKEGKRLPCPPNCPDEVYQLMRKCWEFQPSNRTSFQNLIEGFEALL
UniProt O60674, 849-1124 limits assumed: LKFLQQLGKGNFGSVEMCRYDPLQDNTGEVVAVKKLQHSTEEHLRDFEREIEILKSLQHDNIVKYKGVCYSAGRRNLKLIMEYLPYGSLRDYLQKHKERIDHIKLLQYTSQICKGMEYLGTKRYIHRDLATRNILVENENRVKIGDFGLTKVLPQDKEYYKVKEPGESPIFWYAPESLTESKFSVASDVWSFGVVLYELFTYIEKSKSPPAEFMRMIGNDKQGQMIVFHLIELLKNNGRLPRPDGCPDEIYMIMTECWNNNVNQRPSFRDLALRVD
UniProt P52333, 822-1111 limits assumed: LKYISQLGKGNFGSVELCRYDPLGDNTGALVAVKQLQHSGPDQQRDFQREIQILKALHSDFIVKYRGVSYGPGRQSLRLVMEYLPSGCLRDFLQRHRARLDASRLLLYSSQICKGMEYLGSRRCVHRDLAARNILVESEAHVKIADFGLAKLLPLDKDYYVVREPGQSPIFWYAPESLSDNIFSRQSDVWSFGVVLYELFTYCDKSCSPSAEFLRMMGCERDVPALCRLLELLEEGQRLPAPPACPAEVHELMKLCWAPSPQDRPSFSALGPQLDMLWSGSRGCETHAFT

Assays:
Format in all cases: biochemical
[1] = target: human TYK2 catalytic kinase (JH1) domain (Homo sapiens (Human), UniProt P29597); assay: ADP-Glo Kinase Assay, recombinant TYK2 catalytic kinase (JH1) domain; conditions: read-out: TYK2 biochem IC50 (nM) Mean, recombinant JH1 domain 2 nM, 10 μM ATP, JAK3-974 peptide
Method: (§1) Compounds of the disclosure were assessed for their ability to inhibit TYK2, JAK1, JAK2, and JAK3 activity. The inhibitory properties of the compounds of the disclosure described herein can be evidenced by testing in any one of the following protocols.
(§2) The kinase activity of recombinantly generated catalytic kinase (also known as JH1) domain of human JAK1, JAK2, JAK3 and TYK2 were evaluated in a plate-based assay using the ADP-Glo™ Kinase Assay platform. Specifically, 4 nM of recombinant JAK1 kinase domain is used to phosphorylate 50 μM of a JAK3-342 (sequence ALVDGYFRLTT) peptide in the presence of 35 μM ATP. Catalytic activities of recombinant JAK2, JAK3 and TYK2 kinase domain (0.2, 0.3 and 2 nM, respectively) are evaluated by the phosphorylation status of the JAK3-974 (50 μM; sequence LPLDKDYYVVR) peptide with the addition of ATP (15, 4 and 10 μM, respectively). The reactions proceed for 100 minutes and the catalytic activity is quantified by first depleting the unused ATP, converting the hydrolyzed ADP into ATP to generate luminescence in a luciferase reaction; which is the basis of the ADP-Glo platform. Compounds are tested at either 10 μM or 1 μM top concentration, 11 points of 3-fold dilution. The data is normalized and the percent activity versus log concentration of compound is fitted with a 4-parameter logistic model to generate a curve and an IC50 value.

[2] = target: human JAK1 catalytic kinase (JH1) domain (Homo sapiens (Human), UniProt P23458); assay: ADP-Glo Kinase Assay, recombinant JAK1 catalytic kinase (JH1) domain; conditions: read-out: JAK1 biochem IC50 (nM) Mean, recombinant JH1 domain 4 nM, 35 μM ATP, JAK3-342 peptide
Method: as §1, §2

[3] = target: human JAK2 catalytic kinase (JH1) domain (Homo sapiens (Human), UniProt O60674); assay: ADP-Glo Kinase Assay, recombinant JAK2 catalytic kinase (JH1) domain; conditions: read-out: JAK2 biochem IC50 (nM) Mean, recombinant JH1 domain 0.2 nM, 15 μM ATP, JAK3-974 peptide
Method: as §1, §2

[4] = target: human JAK3 catalytic kinase (JH1) domain (Homo sapiens (Human), UniProt P52333); assay: ADP-Glo Kinase Assay, recombinant JAK3 catalytic kinase (JH1) domain; conditions: read-out: JAK3 biochem IC50 (nM) Mean, recombinant JH1 domain 0.3 nM, 4 μM ATP, JAK3-974 peptide
Method: as §1, §2

Cn1ncc(-c2cc3c(N4CC5CCC(C4)N5C(=O)[C@@H]4CC4(F)F)ccnc3[nH]2)c1F
IC50 [1]: 0.4 nM
IC50 [2]: 32 nM
IC50 [3]: 6 nM
IC50 [4]: 120 nM
